Assay: Drug interaction study: whole blood pharmacokinetics of temsirolimus and sirolimus after single 5-mg i.v. temsirolimus alone or with oral ketoconazole
Format: in vivo
Conditions: human, intravenous, single 5 mg i.v. temsirolimus + ketoconazole 400 mg oral, mean (CV)
Description: In this open-label, non-randomised, single-centre, two-period, sequential study, subjects received temsirolimus (Torisel™; Wyeth Pharmaceuticals, Philadelphia, PA, USA) alone, followed by temsirolimus in combination with ketoconazole after a 14-day washout period. On study day 1 of the first period, subjects received 25 mg i.v. diphenhydramine, followed 30 min later by 5 mg i.v. temsirolimus over 30 min. Subjects remained in the clinical unit until the 72-h blood collection (study day 4) and returned for subsequent blood draws at designated time points over the next 4 days (study days 5–8). Study days 9 through 13 were part of the washout period. […]
The concentrations of temsirolimus and sirolimus in blood were measured simultaneously using validated liquid chromatography/tandem mass spectrometry combination procedures with deuterated internal standard ([Punt et al, 2003]). […] Analytes were detected by tandem mass spectrometry using atmospheric pressure chemical ionisation. The concentration of analytes was determined with calibration standards using linear least squares regression.
Pharmacokinetic parameters for temsirolimus were analysed for each subject for each study period using non-compartmental methods ([Jusko, 1992]). […] The Cmax and the time to reach Cmax (Tmax) were determined visually from the concentration–time curves. […]

Tmax: 3 h
SMILES: CO[C@H]1C[C@@H]2CC[C@@H](C)[C@@](O)(O2)C(=O)C(=O)N2CCCC[C@H]2C(=O)O[C@H]([C@H](C)C[C@@H]2CC[C@@H](O)[C@H](OC)C2)CC(=O)[C@H](C)/C=C(\C)[C@@H](O)[C@@H](OC)C(=O)[C@H](C)C[C@H](C)/C=C/C=C/C=C/1C [Sirolimus]
